From paper PMC3523752 (Journal of chemical information and modeling, 2012) come the findings set out here.

Sequences of proteins named here, by UniProt entry; tags and fusion partners are left off. Residues count along the entry.
UniProt P56817, 46-501: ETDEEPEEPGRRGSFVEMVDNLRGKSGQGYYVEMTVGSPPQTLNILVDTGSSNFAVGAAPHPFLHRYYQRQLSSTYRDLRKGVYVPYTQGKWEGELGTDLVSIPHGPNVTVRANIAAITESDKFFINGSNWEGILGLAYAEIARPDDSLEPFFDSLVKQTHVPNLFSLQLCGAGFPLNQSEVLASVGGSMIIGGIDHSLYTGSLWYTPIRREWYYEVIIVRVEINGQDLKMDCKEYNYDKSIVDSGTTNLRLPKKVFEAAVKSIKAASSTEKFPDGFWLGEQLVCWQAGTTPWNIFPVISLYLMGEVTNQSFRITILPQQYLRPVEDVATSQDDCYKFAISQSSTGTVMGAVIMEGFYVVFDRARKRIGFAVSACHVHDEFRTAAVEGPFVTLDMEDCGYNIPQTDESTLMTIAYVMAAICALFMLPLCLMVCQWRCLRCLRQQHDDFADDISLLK

The target in assay [1] is T1, BACE-1 (Homo sapiens, UniProt P56817). The assay can be described thus: BACE-1 FRET inhibition assay, method b. In kind it is biochemical. The conditions noted are these: standard inhibitors.
In assay [2] the target is T1, BACE-1. The assay can be described thus: BACE-1 FRET inhibition assay, method a. In kind it is biochemical. The conditions noted are these: standard inhibitors.

Take OM99-2: the “potency (BACE-1 inhibition)” value in assay [1] and in assay [2] was “nanomolar potencies” throughout.
